SMILES strings stand for the structures.

By UniProt entry, the sequences of proteins in these tests, tags left out.
UniProt Q08881, whole entry: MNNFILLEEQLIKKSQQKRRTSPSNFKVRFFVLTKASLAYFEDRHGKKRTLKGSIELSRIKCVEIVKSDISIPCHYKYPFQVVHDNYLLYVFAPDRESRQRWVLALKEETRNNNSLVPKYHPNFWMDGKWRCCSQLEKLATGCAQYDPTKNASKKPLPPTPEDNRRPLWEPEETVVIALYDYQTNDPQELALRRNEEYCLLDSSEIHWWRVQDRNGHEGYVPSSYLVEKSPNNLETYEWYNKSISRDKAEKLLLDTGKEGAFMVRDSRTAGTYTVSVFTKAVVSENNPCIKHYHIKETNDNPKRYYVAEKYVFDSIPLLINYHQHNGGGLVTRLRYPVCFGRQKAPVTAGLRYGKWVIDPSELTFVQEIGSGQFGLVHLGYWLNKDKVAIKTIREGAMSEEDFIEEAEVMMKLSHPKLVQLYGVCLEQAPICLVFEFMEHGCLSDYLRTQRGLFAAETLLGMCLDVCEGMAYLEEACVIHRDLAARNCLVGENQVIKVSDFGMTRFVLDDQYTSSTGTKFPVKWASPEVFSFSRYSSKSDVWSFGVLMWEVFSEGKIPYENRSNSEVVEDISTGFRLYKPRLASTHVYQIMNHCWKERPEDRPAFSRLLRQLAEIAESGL
UniProt Q06187, whole entry: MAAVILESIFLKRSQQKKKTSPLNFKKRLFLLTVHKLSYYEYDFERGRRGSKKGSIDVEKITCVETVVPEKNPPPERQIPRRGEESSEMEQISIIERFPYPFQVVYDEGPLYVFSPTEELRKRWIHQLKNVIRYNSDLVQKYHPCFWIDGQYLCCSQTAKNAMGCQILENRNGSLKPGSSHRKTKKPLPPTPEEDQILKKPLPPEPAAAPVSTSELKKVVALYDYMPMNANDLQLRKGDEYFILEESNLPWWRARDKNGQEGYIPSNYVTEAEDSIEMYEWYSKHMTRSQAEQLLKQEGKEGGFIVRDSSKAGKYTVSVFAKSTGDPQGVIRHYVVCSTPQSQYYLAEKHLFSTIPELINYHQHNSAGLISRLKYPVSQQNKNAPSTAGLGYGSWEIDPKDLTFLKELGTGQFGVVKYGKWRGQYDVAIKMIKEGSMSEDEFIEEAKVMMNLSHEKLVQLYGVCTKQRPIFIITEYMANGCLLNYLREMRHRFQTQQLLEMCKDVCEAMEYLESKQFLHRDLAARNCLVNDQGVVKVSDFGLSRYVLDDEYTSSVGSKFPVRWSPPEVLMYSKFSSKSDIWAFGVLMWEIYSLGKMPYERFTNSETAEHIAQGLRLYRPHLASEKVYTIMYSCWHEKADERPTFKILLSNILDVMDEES

By IC50 is commonly meant the concentration that inhibits the measured activity by half.

One assay deals with ITK (Homo sapiens, UniProt Q08881). Description: ADP-Glo + ITK Kinase enzyme system kit, inhibitory activity against ITK. The conditions noted are these: read-out: Inhibitory activity ITK IC50; ITK enzyme 0.4 ng/ul, ATP final concentration of 25 ul, 30° C. for 1 hour, luminescence, duplicate. Here is the method:
(§1) Inhibitory activities against BTK and ITK were measured for the compounds prepared in the above Examples as follows.
The inhibitory activity against ITK was evaluated using ‘ADP-Glo™+ITK Kinase enzyme system’ kit (Promega Corporation). In a white 96-well plate, 10 ul of ITK enzyme prepared so as to have a final concentration of 0.4 ng/ul was mixed with 5 ul of compounds having a final concentration of 1 uM in the case of evaluating a single concentration of compound and a concentration of 1000, 300, 100, 30, 10, 3, 1, 0.3, 0.1 and 0.03 nM in the case of IC50 evaluation, and then reacted at room temperature for 15 minutes. To the plate on which reactions were completed, 5 ul of substrate and 5 ul of ATP prepared so as to have a final concentration of […] added and then allowed to react at 30° C. for 1 hour. All wells of the plate were treated with 25 ul of ADP-Glo™ reagent and then allowed to react at 30° C. for 40 minutes. After that, all wells were treated with 50 ul of kinase detection buffer, and then allowed to react at 30° C. for 30 minutes under light shielding conditions. For the plate on which all reactions were completed, luminescence was measured and the results were calculated. Evaluation was carried out in duplicate, and negative control and positive control were calculated depending on whether or not the enzyme was added without treatment of the compound. The IC50 was calculated based on the calculated values.
For orientation: ADP-Glo turns the ADP formed in a reaction into a luminescent signal.

The target of the next assay is BTK (Homo sapiens, UniProt Q06187). The assay can be described thus: ADP-Glo + BTK Kinase enzyme system kit, inhibitory activity against BTK. The conditions noted are these: read-out: Inhibitory activity BTK IC50; BTK enzyme 1 ng/ul, ATP 10 μM, 30° C. for 1 hour, luminescence, duplicate. As for the experimental part: as §1
The inhibitory activities against BTK were evaluated using ‘ADP-Glo™+BTK Kinase enzyme system’ kit (Promega Corporation). In a white 96-well plate, 10 ul of BTK enzyme prepared so as to have a final concentration of 1 ng/ul was mixed with 5 μl of compounds having a final concentration of […] the case of evaluating a single concentration of compound and a concentration of 1000, 300, 100, 30, 10, 3, 1, 0.3, 0.1 and 0.03 nM in the case of IC50 evaluation, and then reacted at room temperature for 15 minutes. 5 ul of substrate and 5 ul of ATP prepared so as to have a final concentration of 10 μM were added to the plate on which reactions were completed, and then allowed to react at 30° C. for 1 hour. All wells of the plate were treated with 25 ul of ADP-Glo™ reagent and allowed to react at 30° C. for 40 minutes. After that, all wells were treated with 50 ul of kinase detection buffer, and then reacted at 30° C. for 30 minutes under light shielding conditions. For the plate on which all reactions were completed, luminescence was measured and the results were calculated. Evaluation was carried out in duplicate, and negative control and positive control were calculated depending on whether or not the enzyme was added without treatment of the compound. The IC50 was calculated based on the calculated values.

Turning to `C=CC(=O)Nc1cccc(-c2cc(CN3CCCCC3)cc(Nc3cc(C)[nH]n3)n2)c1`, the IC50 at ITK worked out at 25.7 nM; at BTK it was 20.3 nM.
For the compound `C=CC(=O)Nc1cccc(-c2cc(CN3CCN(C(=O)NCC)CC3)cc(Nc3ncc(C)s3)n2)c1`, the concentration for half-maximal inhibition (IC50) at ITK came out at 6.7 nM; at BTK, 2.6 nM.
For the compound `C=CC(=O)Nc1cccc(-c2cc(CN3CCN(C(=O)NC(C)C)CC3)cc(Nc3ncc(C)s3)n2)c1`, the half-maximal inhibitory concentration (IC50) was 6 nM at ITK and 3.1 nM at BTK.
Consider `C=CC(=O)Nc1cccc(-c2cc(CN3CCN(C(=O)NC)CC3)cc(Nc3ncc(C)s3)n2)c1`, for which the IC50 at ITK came to 2 nM; on BTK, 0.9 nM.

These data come from patent US11149019B2, “Phenylpyridine derivative and pharmaceutical composition comprising the same” (Daewoong Pharmaceutical Co., Ltd., priority 2017, dated 2021).
